# Source: ChEMBL document CHEMBL4354804, “Discovery of a New Isoxazole-3-hydroxamate-Based Histone Deacetylase 6 Inhibitor SS-208 with Antitumor Activity in Syngeneic Melanoma Mouse Models” (J Med Chem, 2019)
# Species on record: Homo sapiens
# Test: Selectivity index, ratio of IC50 for inhibition of human recombinant HDAC1 using fluorogenic HDAC substrate by fluorescence assay to IC50 for inhibition of human recombinant HDAC6 using fluorogenic HDAC substrate by fluorescence assay
smiles,measurement,value
CN(Cc1ccc(C(=O)NO)cc1F)CC12CC3CC(CC(C3)C1)C2,Ratio IC50,> 16
